According to patent US6034134A, “1-Amino-alkylcyclohexane NMDA receptor antagonists” (Merz + Co. GmbH & Co., priority 1998, dated 2000):

Biological target: NMDA receptor
Experiment: [3H]-(+)-MK-801 binding to rat cortical membranes
Method: Male Sprague-Dawley rats (200-250 g) were decapitated and their brains were removed rapidly. The cortex was dissected and homogenized in 20 volumes of ice-cold 0.32 M sucrose using a glass-Teflon homogenizer. The homogenate was centrifuged at 1000 ×g for 10 minutes. The pellet was discarded and the supernatant centrifuged at 20,000 ×g for 20 minutes. The resulting pellet was re-suspended in 20 volumes of distilled water and centrifuged for 20 minutes at 8000 ×g. Then the supernatant and the buffy coat were centrifuged three times (48,000 ×g for 20 minutes) in the presence of 50 mM Tris-HCl, pH 8.0. All centrifugation steps were carried out at 4° C. […] The amount of protein in the final membrane preparation was determined according to the method of Lowry with some modifications. […]
Membranes were re-suspended and incubated in 50 mM Tris-HCl, pH 8.0. […] Following separation and rinse, the filters were placed into scintillation liquid (5 ml; Ultima Gold) and radio activity retained on the filters was determined with a conventional liquid scintillation counter (Hewlett Packard, Liquid Scintillation Analyser).
IC50 s in patch clamp, excitotoxicity, and binding studies were calculated according to the four parameter logistic equation using the Grafit computer program (Erithacus Software, England). Ki value for binding studies were then determined according to Cheng and Prusoff. […]

NC12CC3CC(CC(C3)C1)C2 [Amantadine, reference compound]
Ki (read-out: MK-801 Ki, Table 9, Cheng-Prusoff with Kd for MK-801 of […]): 25.9 µM
IC50 (read-out: [3H] MK-801 IC50, Table 7, footnote calls the values Ki): 20.4 µM
